Source: patent US20260022114A1, “N-(5-SUBSTITUTED-[(1,3,4-THIADIAZOLYL) OR (1,3-THIAZOLYL)](SUBSTITUTED)CARBOXAMIDE COMPOUNDS, PHARMACEUTICAL COMPOSITIONS, AND METHODS OF PREPARING THE AMIDE COMPOUNDS AND OF THEIR USE” (Repare Therapeutics Inc., priority 2022, published 2026)

By UniProt entry, the sequences of proteins in these tests, tags left out. Residues count along the entry.
UniProt O75417, 1-894 limits assumed: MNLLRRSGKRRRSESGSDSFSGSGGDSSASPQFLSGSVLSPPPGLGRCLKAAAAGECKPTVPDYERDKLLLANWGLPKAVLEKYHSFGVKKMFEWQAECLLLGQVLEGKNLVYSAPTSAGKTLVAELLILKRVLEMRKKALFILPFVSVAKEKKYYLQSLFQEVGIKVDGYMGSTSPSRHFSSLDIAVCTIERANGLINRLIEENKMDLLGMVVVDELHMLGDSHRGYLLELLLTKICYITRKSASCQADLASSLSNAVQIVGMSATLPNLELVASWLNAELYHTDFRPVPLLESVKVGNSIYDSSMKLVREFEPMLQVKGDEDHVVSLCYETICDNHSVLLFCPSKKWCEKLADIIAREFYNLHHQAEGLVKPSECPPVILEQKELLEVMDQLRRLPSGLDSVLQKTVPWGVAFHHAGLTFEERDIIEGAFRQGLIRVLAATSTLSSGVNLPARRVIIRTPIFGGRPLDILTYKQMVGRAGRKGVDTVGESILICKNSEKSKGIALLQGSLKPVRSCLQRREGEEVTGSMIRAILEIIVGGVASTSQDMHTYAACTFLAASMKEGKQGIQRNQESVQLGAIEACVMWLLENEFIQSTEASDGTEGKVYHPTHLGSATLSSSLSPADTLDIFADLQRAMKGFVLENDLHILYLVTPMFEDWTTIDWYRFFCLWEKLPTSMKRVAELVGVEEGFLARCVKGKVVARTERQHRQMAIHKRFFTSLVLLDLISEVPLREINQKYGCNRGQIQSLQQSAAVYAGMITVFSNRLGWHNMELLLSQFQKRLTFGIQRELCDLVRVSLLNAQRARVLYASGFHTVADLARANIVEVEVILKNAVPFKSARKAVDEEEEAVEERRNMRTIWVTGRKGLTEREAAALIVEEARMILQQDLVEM

Each compound was assayed against PolQ ATPase enzyme (1-894) (Homo sapiens (Human), UniProt O75417) (assay: Polθ ATPase enzymatic assay (0.5 nM enzyme concentration), ADP-Glo). Conditions: read-out: IC50 (nM) [PolQ] 0.5 nM; 0.5 nM PolQ ATPase enzyme (1-894); average IC50.
Type: biochemical

Row | SMILES | IC50
1 | COc1cnc(C(F)F)cc1-c1cc(N2CCN(S(C)(=O)=O)C3(CC3)C2=O)ncc1C(=O)Nc1nnc(C#CC2CC2)s1 | 0.54 nM
2 | COc1ccc(C(F)(F)F)cc1-c1cc(Cc2nnc(C)o2)ncc1C(=O)Nc1ncc(C#CC2CC2)s1 | 0.63 nM
3 | COc1ccc(C(F)F)cc1-c1cc(Nc2ccn(C)n2)ncc1C(=O)Nc1nnc(C#CC2CC2)s1 | 11 nM
4 | Cc1nnc(Cn2cc(-c3cc(C(F)(F)F)ccc3C)c(C(=O)Nc3ncc(C#CC4CC4)s3)cc2=O)o1 | < 0.25 nM
5 | Cc1nnc(Cn2cc(-c3cc(Cl)ccc3C)c(C(=O)Nc3ncc(C#CC4CC4)s3)cc2=O)o1 | < 0.25 nM
6 | COc1ccc(C(F)(F)F)cc1-c1cc(C(=O)c2nnc(C)o2)ncc1C(=O)Nc1nnc(C#CC2CC2)s1 | < 0.25 nM
7 | COc1ccc(C(F)(F)F)cc1-c1cc(-c2ccnn2C)ncc1C(=O)Nc1nnc(C#CC2CC2)s1 | 0.99 nM
8 | COc1cnc(C(F)F)cc1-c1cc(-c2nn[nH]n2)ncc1C(=O)Nc1nnc(C#CC2CC2)s1 | < 0.25 nM
